Experimental findings from patent publication US5844102A, “Glycohydrolase inhibitors, their preparation and use thereof” (University of Maryland Baltimore County, priority 1994, dated 1998) are described below.

The assay has as its target T1, α-mannosidase (jackbean) (Canavalia ensiformis, UniProt C0HJB3).
T1 construct: purchased Sigma Chemical Company
T1 sequence (C0HJB3 1-562 limits assumed): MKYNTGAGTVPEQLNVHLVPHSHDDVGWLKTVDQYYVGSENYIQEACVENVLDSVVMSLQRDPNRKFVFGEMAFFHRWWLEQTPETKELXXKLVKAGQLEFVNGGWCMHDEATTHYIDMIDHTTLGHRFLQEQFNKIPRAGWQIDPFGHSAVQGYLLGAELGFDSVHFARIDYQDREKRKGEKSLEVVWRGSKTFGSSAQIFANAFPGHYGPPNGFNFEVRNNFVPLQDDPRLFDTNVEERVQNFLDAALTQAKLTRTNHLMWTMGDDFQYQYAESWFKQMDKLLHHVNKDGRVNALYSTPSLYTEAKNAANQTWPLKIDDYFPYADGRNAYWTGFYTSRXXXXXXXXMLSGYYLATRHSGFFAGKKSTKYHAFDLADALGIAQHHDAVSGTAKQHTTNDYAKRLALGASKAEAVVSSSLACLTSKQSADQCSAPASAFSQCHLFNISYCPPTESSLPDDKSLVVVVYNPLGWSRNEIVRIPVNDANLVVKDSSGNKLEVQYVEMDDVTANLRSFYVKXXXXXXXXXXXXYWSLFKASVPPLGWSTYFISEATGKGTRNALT
T1 sequence (C0HJB3 563-981 limits assumed): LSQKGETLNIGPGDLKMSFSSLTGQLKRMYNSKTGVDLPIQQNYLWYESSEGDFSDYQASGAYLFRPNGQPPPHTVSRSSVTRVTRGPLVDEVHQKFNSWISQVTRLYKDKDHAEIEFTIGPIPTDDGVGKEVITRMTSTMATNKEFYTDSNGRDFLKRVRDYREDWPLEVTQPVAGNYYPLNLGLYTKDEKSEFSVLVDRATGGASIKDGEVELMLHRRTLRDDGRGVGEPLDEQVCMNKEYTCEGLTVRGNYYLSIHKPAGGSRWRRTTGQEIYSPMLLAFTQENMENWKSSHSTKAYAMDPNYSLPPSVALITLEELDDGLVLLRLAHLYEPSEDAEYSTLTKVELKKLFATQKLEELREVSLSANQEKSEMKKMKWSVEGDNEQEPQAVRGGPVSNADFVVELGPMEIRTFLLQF
The assay is described as follows: α-mannosidase inhibition, p-nitrophenol-α-mannopyranoside substrate. It is filed as biochemical. As to conditions: 25° C., citrate buffer 0.05M, pH 4.5; read-out: Ki (inhibition constant), α-Mannosidase. As for the experimental part: The enzymes α-glucosidase (yeast), β-glucosidase (almonds), isomaltase (bakers yeast) and α-mannosidase (jackbean) were purchased from Sigma Chemical Company. Glucoamylase was isolated by the present inventors by expressing the gene from Aspergillus awamori in yeast, by methods well known in the art. Enzyme assays were performed by using p-nitrophenol -α (or β)-glucopyranosides as substrate at 37° C. in phosphate buffer (0.05M, pH 6.8) for α (β)-glucosidase and isomaltase, and p-nitrophenol-α-mannopyranoside as substrate at 25° C. in citrate (0.05M, pH 4.5) buffer for α-mannosidase. Glucoamylase was assayed using maltose as substrate at 50° C. in sodium acetate buffer (0.05M, pH 4.5).
Michaelis-Menten constant, Km, was calculated using software Grafit (Erithacus Software Ltd.). Ki was calculated by plotting K^appm vs. [Inhibitor]. FIG. 2(a) represents a plot of K^appm vs. [Inhibitor], wherein the inhibitor is the monosaccharide sugar analog isofagomin, obtained for five different glycosidases. FIG. 2(b) represents a similar plot of K^appm vs. [Inhibitor], wherein the inhibitor is the disaccharide sugar analog of formula II, obtained for five different glycosidases.

With `OC[C@H]1NC[C@@H](O)[C@@H](O)[C@@H]1O` [Deoxymannojirimycin, reference compound], the Ki was found to be 278 µM. For `OC[C@H]1NC[C@H](O)[C@@H](O)[C@@H]1O` [Deoxynojirimycin, reference compound] the value was 275 µM.

Broadly, the Ki is the equilibrium dissociation constant of an inhibitor or competing ligand from its target.
